Assay: Hemolytic activity against human RBC assessed as concentration required to cause 50% hemolysis measured after 1 hr
Assay type: cell-based, Erythrocyte
Conditions: red blood cells (erythrocytes), read-out: CC50
How it was run: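 Donor human red blood cells were washed in PBS and diluted to 0.25% (v/v). Peptides were serially diluted from water to eight concentrations, 0.187–24 μM. Incubation was 1 h at 37 °C; PBS served as negative control and 1% Triton-X as positive control. Supernatant absorbance was read at 415 nm. CC50 (50% lysis) from log(agonist) vs response (variable slope) fit; n = 3.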

## CC[C@H](C)[C@H](NC(=O)CN)C(=O)NCC(=O)N[C@@H](C)C(=O)N[C@H](C(=O)N[C@@H](CC(C)C)C(=O)N[C@@H](CCCCN)C(=O)N[C@H](C(=O)N[C@@H](CC(C)C)C(=O)N[C@H](C(=O)N[C@H](C(=O)NCC(=O)N[C@@H](CC(C)C)C(=O)N1CCC[C@H]1C(=O)N[C@@H](C)C(=O)N[C@@H](CC(C)C)C(=O)N[C@H](C(=O)N[C@@H](CO)C(=O)N[C@@H](Cc1c[nH]c2ccccc12)C(=O)N[C@H](C(=O)N[C@@H](CCCCN)C(=O)N[C@@H](CCCNC(=N)N)C(=O)N[C@@H](CCCCN)C(=O)N[C@@H](CCCNC(=N)N)C(=O)N[C@@H](CCC(N)=O)C(=O)N[C@@H](CCC(N)=O)C(N)=O)[C@@H](C)CC)[C@@H](C)CC)[C@@H](C)O)[C@@H](C)O)C(C)C)C(C)C [MELITTIN]
  HC50 at 1 h: 200 nM

From ChEMBL document CHEMBL4813935, “Cyclotides from Brazilian Palicourea sessilis and Their Effects on Human Lymphocytes” (J Nat Prod, 2021)
